Data: ChEMBL document CHEMBL2040753, “Development of potent and selective inhibitors of aldo-keto reductase 1C3 (type 5 17β-hydroxysteroid dehydrogenase) based on N-phenyl-aminobenzoates and their structure-activity relationships” (J Med Chem, 2012)

Molecular target: T1, Aldo-keto reductase family 1 member C1 (Homo sapiens, UniProt Q04828)
T1 sequence (Q04828 whole entry): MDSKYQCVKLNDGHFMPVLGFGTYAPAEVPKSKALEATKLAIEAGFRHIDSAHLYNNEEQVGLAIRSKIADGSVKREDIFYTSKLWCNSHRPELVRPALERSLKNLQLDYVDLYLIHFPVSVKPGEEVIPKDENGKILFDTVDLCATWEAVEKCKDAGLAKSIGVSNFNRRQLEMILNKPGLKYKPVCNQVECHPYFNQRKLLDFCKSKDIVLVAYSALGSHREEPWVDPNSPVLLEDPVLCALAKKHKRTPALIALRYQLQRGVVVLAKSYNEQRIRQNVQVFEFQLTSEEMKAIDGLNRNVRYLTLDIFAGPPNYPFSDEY
Test: Inhibition of recombinant AKR1C1 assessed as NADP+ dependent oxidation of S-tetralol by fluorescence assay

Structure (SMILES)	IC50
CC(=O)c1ccc(Nc2cccc(C(=O)O)c2)cc1	15.6 µM
CC(C)(C)c1ccc(Nc2cccc(C(=O)O)c2)cc1	35.6 µM
O=C(O)c1cccc(Nc2ccc(Cl)cc2)c1	30.2 µM
